Consider one compound from US20090093448A1, “19-NOR-PROGESTERONE FOR CONTRACEPTION” (GRUNENTHAL GMBH, priority 2007, published 2009).

The assay addresses T1, human progesterone receptor (Homo sapiens, UniProt P06401).
T1 sequence (P06401 1-933): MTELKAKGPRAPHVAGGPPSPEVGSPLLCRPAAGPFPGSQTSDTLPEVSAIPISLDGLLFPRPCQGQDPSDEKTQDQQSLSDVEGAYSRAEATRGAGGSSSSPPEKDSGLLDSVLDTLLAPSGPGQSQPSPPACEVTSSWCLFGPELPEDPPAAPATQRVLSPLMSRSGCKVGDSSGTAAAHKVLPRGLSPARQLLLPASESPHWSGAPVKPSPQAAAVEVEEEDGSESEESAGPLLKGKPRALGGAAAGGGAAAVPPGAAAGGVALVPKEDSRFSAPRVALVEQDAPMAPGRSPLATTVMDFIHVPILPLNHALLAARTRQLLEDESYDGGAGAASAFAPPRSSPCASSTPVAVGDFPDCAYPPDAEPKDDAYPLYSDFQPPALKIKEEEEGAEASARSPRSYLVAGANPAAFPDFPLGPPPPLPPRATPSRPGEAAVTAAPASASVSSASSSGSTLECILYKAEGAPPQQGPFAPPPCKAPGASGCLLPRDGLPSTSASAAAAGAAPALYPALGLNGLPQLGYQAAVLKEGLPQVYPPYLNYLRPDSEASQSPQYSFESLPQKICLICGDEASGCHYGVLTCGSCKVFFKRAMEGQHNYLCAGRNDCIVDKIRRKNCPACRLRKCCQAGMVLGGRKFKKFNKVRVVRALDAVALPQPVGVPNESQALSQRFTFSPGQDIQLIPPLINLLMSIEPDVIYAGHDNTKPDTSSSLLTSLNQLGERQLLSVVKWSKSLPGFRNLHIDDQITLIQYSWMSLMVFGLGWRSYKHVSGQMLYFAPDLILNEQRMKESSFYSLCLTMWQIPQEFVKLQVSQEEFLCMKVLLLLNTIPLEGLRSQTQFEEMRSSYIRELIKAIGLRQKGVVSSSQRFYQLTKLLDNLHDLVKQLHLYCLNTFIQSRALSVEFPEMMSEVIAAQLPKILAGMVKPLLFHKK
Kind of assay: Relative binding affinity for the human progesterone receptor. The note with it: progesterone as reference = 100. The protocol:
The above-stated binding affinity for the human progesterone receptor is here preferably determined according to EP-A 808 845 or as in I. Lacroix et al., Bioorganic & Medicinal Chemistry, 1999, 7, 2329-2341.
The relative affinity of trimegestone sulfate for the human progesterone receptor was determined experimentally and compared with the 6β—OH and the 1β—OH metabolites of trimegestone (cf. EP-A 808 845).

As to `CC(=O)[C@H]1CC[C@H]2[C@@H]3CCC4=CC(=O)CC[C@]4(C)[C@H]3CC[C@]12C` [Progesterone], the “Relative binding affinity to progesterone receptor” value is “≡100”.
